Data from ChEMBL document CHEMBL1131172 (J Med Chem, 1998).

Assays:
[1] = molecular target: T1, Dihydrofolate reductase (Pneumocystis carinii, UniProt P16184); assay type: functional
T1 sequence (P16184 whole entry): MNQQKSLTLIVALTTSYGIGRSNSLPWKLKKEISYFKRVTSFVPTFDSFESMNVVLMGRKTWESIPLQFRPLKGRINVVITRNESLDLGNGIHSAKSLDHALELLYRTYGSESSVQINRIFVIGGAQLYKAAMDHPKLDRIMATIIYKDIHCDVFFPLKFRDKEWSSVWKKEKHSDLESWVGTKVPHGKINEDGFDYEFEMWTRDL

[2] = molecular target: T1, Dihydrofolate reductase

Compound	IC50 [1] [µM]	IC50 [2] [µM]
CN(c1ccc2ccccc2c1)c1ccc2nc(N)nc(N)c2n1	0.0317	–
COc1ccc(S(=O)(=O)c2ccc3nc(N)nc(N)c3n2)cc1	–	10.5
COc1ccc(OC)c(Nc2ccc3nc(N)nc(N)c3n2)c1	–	16.1
COc1ccccc1Nc1ccc2nc(N)nc(N)c2n1	–	8.7
